Results: US20250282834A1, “PEPTIDE INHIBITORS FOR CHROMODOMAIN HELICASE DNA BINDING PROTEIN 4 (CHD4)” (THE REGENTS OF THE UNIVERSITY OF CALIFORNIA, priority 2022, published 2025)

Amino acid sequences for entries named in this document (tags omitted). Residues count along the entry.
UniProt Q14839, 1-512: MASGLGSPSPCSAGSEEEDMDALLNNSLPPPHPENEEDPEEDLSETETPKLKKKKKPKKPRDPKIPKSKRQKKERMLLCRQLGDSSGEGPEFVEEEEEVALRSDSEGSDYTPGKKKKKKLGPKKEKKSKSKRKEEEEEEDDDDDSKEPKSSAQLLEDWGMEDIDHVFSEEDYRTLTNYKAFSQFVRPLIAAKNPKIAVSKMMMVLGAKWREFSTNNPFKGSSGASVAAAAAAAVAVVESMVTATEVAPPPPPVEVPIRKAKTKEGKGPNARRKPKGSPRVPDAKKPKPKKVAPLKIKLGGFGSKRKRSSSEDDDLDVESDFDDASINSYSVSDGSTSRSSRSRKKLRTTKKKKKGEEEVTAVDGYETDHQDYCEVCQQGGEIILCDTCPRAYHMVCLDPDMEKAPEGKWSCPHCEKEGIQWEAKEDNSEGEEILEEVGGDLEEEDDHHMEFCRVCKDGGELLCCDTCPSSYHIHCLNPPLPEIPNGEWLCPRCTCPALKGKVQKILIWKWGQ

Columns and labels:
normal PBMCs = experiment: MTT cell viability assay, PBMC; type: cell-based; conditions: 24 hours; compared with monocytic leukemia cell lines
CHD4 and LANA = target: T1, CHD4 and LANA (Homo sapiens, UniProt Q14839); experiment: Peptide pull-down with streptavidin beads from BC3 cells; type: cell-based; conditions: biotinylated peptide 10 μM, streptavidin magnetic beads
T1 construct: endogenous in cells; host or cells: BC3

CHD4 [1] = target: T2, CHD4 (Homo sapiens, UniProt Q14839); experiment: ELISA of VGN73 binding region in CHD4 (CHD4 deletion proteins); set-up: made in house; host or cells: Sf9 (recombinant baculovirus); conditions: CHD4 1-512, 363-1245, full-length; OD 450 nm
[2] = system: cleaved caspase 3, LC3II and LC3I; experiment: Western blot of apoptosis and autophagy markers in BC3 cells; type: cell-based; conditions: 18 μM, 24 hours
[3] = target: T3, CHD4 occupancies on promoters in BCBL-1 cells (Homo sapiens, UniProt Q14839); experiment: CUT&RUN-qPCR of CHD4 occupancies on promoters; type: cell-based; conditions: ratio VGN73 treated vs non-treated
T3 construct: endogenous in cells; host or cells: BC3, BCBL-1

CHD4 [4] = experiment: ELISA of VGN73 binding region in CHD4 (CHD4 deletion proteins); conditions: OD 450 nm
CHD4 [5] = target: T2, CHD4; experiment: CHD4 and LANA protein expression by IFA and western blotting in PEL cells; type: cell-based; set-up: endogenous in cells; host or cells: BC3, BCBL-1
Experimental: FIG. 3 Effect of VGN73 on CHD4 and LANA protein in tissue culture. FIG. 3. Amount of CHD4 and LANA protein expression was evaluated by IFA. BC3 cells were treated with VGN73 (18 μM) or mutant peptide (18 μM) for 24 hours. Then the cells were stained with the indicated antibodies. The scale is indicated in the panel. Cell volume. CHD4 and LANA signal intensity were compared. **; p<0.01, ***; p<0.001 versus the VGN73 group. FIG. 3b. Amount of CHD4 and LANA protein expression in total cell lysates was evaluated by western blotting. BC3 and BCBL-1 cells were treated with VGN73 at a concentration of IC50 or starved condition for 24 hours. The respective protein band was confirmed by immunoblotting with anti-CHD4 and anti-LANA antibody. FIG. 3c. Evaluating of caspase and proteasome in CHD4 cleavage by VGN73. BC3 cells were pretreated with pan-caspase inhibitor. Z-VAD-FMK (50 μM) or proteasome inhibitor, bortezomib (25 nM) for 1 hour, followed by treated with VGN73 (18 μM) for 8 hours. The respective protein band was confirmed by immunoblotting with anti-CHD4 antibody.
BC3 cells and BCBL-1 cells were treated with VGN73 at the concentration of IC50 for 24 hours. These cells were also treated with VGN73 in media without FBS. To evaluate the effect of VGN73 on CHD4 and LANA proteins in tissue culture, IFA and western blotting were carried out, and these gene expressions were evaluated by RT-qPCR. Moreover, BC3 cells were pretreated with pan-caspase inhibitor, Z-VAD-FMK (50 μM) or proteasome inhibitor, bortezomib (25 nM) for 1 hour, followed by treated with VGN73 (18 μM) for 8 hours. BC3 cells were pretreated with lysosome inhibitor, chloroquine (7.5 μM) for 1 hour, followed by treated with VGN73 (18 μM) for 24 hours. Western blotting was carried out for analyzing biological mechanisms for CHD4 decreasing and inducing cell death by VGN73 treatment.
To evaluate subcellular peptide localization, IFA was carried out (FIG. 2d). Cy5-labeled peptides were used to track subcellular localization. BC3 cells were treated with 10 μM of Cy5-labeled VGN73 or mutant peptide for 1 min and 60 min. Moreover, to evaluate VGN73 efficacy to CHD4 and LANA in tissue culture. IFA was carried out (FIG. 3a). BC3 cells were treated with VGN73 at a concentration of IC50 or mutant peptide for 24 hours. In both assays, the cells were washed with PBS 2 times after peptide treatment. The cells were then fixed with 4% formaldehyde, permeabilized with 0.2% Triton X-100. […] The exposure settings and image acquisition protocols were fixed in each imaging study to enable quantitative analysis. Mean LANA and CHD4 fluorescence (measured in arbitrary units, or A.U.) per cell was subsequently calculated using onboard software and/or NIH Image (FIG. 3a(b)). […]

leukemic cell = experiment: Leukemic cell-killing activity during peptide screening; type: cell-based; conditions: longer version vs peptide without PYGLKK

SMILES: CC[C@H](C)[C@H](NC(=O)[C@@H](NC(=O)[C@H](C)NC(=O)[C@H](Cc1c[nH]cn1)NC(=O)[C@H](CCCCN)NC(=O)[C@H](Cc1c[nH]c2ccccc12)NC(=O)CCNC(=O)[C@H](CCCNC(=N)N)NC(=O)[C@H](CCCNC(=N)N)NC(=O)[C@H](CCCNC(=N)N)NC(=O)[C@H](CCCN)NC(=O)[C@H](CCCNC(=N)N)NC(=O)[C@H](CCCNC(=N)N)NC(=O)[C@H](CCCCN)NC(=O)[C@H](CCCCN)NC(=O)[C@H](N)CCCNC(=N)N)C(C)C)C(=O)N[C@@H](Cc1ccccc1)C(=O)N[C@@H](Cc1c[nH]c2ccccc12)C(=O)NCC(=O)N[C@@H](CC(N)=O)C(=O)N[C@@H](CC(=O)O)C(=O)N1CCC[C@H]1C(=O)N[C@@H](Cc1ccc(O)cc1)C(=O)NCC(=O)N[C@@H](CC(C)C)C(=O)N[C@@H](CCCCN)C(=O)N[C@@H](CCCCN)C(=O)O [VGN73, (d-Arg}KKRR{ORN}RRR{β-Ala}WKHAVIFWGNDPYGLKK]
- sensitivity of normal PBMCs (MTT) (normal PBMCs): relatively resistant; also recorded: not very sensitive
- peptide-bound CHD4 or LANA precipitated from cells (CHD4 and LANA): precipitated more of CHD4 and LANA than the overall background
- binding to recombinant CHD4 proteins containing the PHD domain (CHD4 [1]): bound to recombinant CHD4 that encodes 1-512, 363-1245, or the fill-length CHD4
- apoptosis and autophagy markers by western blotting [2]: increasing of apoptosis and autophagy markers
- occupancies of CHD4 on target gene promoters [3]: decreased the occupancies of CHD4 from each promoter, except for Klf6; also recorded: reduced its occupancies
- binding to recombinant CHD4 proteins lacking PHD domain (CHD4 [4]): failed to bind
- CHD4 cleavage (western blotting, total cell lysates) (CHD4 [5]; BC3 and BCBL-1 cells, IC50 concentration, 24 hours): induction of CHD4 cleavages; also recorded: effectively induces caspase-mediated CHD4 cleavages
- degradation of other proteins BRM, SMARCE1, IRF4 in total lysates (CHD4 [5]; BC3 and BCBL-1 cells, VGN73 at IC50, 24 hours): not seen; also recorded: spares other cellular proteins
- intensity of the CHD4 signal (IFA) (CHD4 [5]; BC3 cells, 18 μM, 24 hours): substantially lowered
- CHD4 cleavage under a low serum condition (CHD4 [5]; starved condition, 24 hours): enhanced
- increase of cell-killing effects by addition of C-terminal 6 amino acids (PYGLKK) (leukemic cell): approximately 2 fold

Entries after “also recorded” stand apart in the source; their conditions may differ.
